Amino acid sequences for entries named in this document (tags omitted). Residues count along the entry.
UniProt P06875, 27-235: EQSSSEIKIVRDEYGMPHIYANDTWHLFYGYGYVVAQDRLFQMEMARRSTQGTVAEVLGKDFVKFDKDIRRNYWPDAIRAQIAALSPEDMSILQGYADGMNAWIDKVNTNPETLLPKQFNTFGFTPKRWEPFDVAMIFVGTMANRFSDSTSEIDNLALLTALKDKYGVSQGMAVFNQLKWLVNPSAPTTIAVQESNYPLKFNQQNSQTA
UniProt P06875, 290-846: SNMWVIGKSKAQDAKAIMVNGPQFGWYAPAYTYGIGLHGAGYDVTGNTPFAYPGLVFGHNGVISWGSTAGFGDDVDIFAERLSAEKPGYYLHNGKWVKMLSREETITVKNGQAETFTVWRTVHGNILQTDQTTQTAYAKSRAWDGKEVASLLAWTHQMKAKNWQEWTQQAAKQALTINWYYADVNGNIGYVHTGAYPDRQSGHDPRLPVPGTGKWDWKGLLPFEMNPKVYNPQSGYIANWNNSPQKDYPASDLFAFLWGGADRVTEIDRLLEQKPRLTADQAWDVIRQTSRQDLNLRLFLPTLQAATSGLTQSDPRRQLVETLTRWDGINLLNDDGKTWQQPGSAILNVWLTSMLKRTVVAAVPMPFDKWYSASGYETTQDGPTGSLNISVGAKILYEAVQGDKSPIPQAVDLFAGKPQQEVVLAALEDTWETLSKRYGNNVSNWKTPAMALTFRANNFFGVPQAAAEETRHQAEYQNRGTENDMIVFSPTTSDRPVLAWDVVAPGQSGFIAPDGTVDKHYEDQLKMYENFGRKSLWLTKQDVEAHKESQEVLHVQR

In patent US5753458A, “Acylation method for penicillins and cephalosporins” (Gist-Brocades B.V., priority 1994, dated 1998):

Tests used:
Assay type in all cases: biochemical
[1] = target: immobilized penicillin G acylase from E. coli (Escherichia coli, UniProt P06875); test: Enzymatic amoxicillin synthesis with immobilized Pen G acylase, Phox concentration varied (Example 1); conditions: Exp E; [Phox] 61.7 μM; enzyme 8.6 U/ml
Source text: (§1) V0 (Amox) is the initial velocity of Amox formation, and V0 (D-HPG) is the initial velocity of D-HPG formation, specified as μmoles/min/g enzyme, μmoles/min/ml reaction mixture, or nmoles/min/U (enzyme activity).
The ratio X is defined as the number of moles of D-HPGA consumed per mole of Amox produced. For practical use this can be transformed to X=1+moles D-HPG/moles Amox, wherein "moles D-HPG" is the molar amount of D-HPG produced by hydrolysis of the acylating agent and the desired product and "moles Amox" is the molar amount of Amox present in the reaction mixture. Thus, if X is 1 this means that only the desired synthesis takes place, no hydrolysis. If X is 2, this means that D-HPG and Amox are formed in equal amounts (on a molar basis). If X is 3, this means that twice as much D-HPG as Amox is present in the reaction mixture (on a molar basis). The ratio X can be calculated at any time during reaction, but in the following examples X is calculated at the reaction stop time, which is defined as the time at which 90 % of the theoretical yield of Amox is present in the reaction mixture (based on the inserted amount of 6-APA). Square brackets are used to designate molar concentrations. […]
Representative samples of the reaction mixtures including solid constituents were taken at regular intervals during the reactions and analyzed by HPLC. […]

[2] = target: T1, Soluble Pen G acylase (Escherichia coli, UniProt P06875); test: Enzymatic amoxicillin synthesis with soluble Pen G acylase, Phox varied (Example 5)
T1 construct: purchased Calbiochem; GBF 516329 (Calbiochem)
Source text: as §1
(§2) The ratio X is defined as the number of moles of D-HPGA consumed per mole of Amox produced. For practical use this can be transformed to X=1+moles D-HPG/moles Amox, wherein "moles D-HPG" is the molar amount of D-HPG produced by hydrolysis of the acylating agent and the desired product and "moles Amox" is the molar amount of Amox present in the reaction mixture. Thus, if X is 1 this means that only the desired synthesis takes place, no hydrolysis. If X is 2, this means that D-HPG and Amox are formed in equal amounts (on a molar basis). If X is 3, this means that twice as much D-HPG as Amox is present in the reaction mixture (on a molar basis). The ratio X can be calculated at any time during reaction, but in the following examples X is calculated at the reaction stop time, which is defined as the time at which 90 % of the theoretical yield of Amox is present in the reaction mixture (based on the inserted amount of 6-APA). Square brackets are used to designate molar concentrations.
(§3) In Examples 1-8 the following standard conditions for enzymatic amoxicillin synthesis have been used (see patent application No. WO 92/01061 for further details):
(§4) During the reactions, the pH value of the reaction mixtures was kept constant by titration with 2M sulphuric acid.
(§5) Representative samples of the reaction mixtures including solid constituents were taken at regular intervals during the reactions and analyzed by HPLC.
Soluble Pen G acylase preparations were obtained from Calbiochem, art. No. 516329, ca. 1500 U/ml, and from GBF, ca. 300 U/ml. An enzyme dosage of 60 or 61 U/ml were employed in the two series.

[3] = target: T2, immobilized Pen G acylase preparations (Escherichia coli, UniProt P06875); test: Enzymatic amoxicillin synthesis with various immobilized Pen G acylase preparations, Phox varied (Example 3); conditions: Immobilizate a (E. coli, 8.6 U/ml)
T2 construct: Recordati (preparation c); Boehringer Mannheim, experimental preparation (preparation d)
Source text: as §2, §3, §4, §5
(§6) Four different immobilized Pen G acylase preparations were used: a) immobilized penicillin G acylase from E. coli; enzyme dosing 8.6 U/ml; b) agarose based immobilizate, dosing 12.0 U/ml; c) immobilizate obtained from Recordati, dosing 12.0 U/ml; and d) immobilizate obtained from Boehringer Mannheim (experimental preparation), dosing 11.5 U/ml.
(§7) Each immobilizate was tested under standard synthesis conditions in presence of Phox 2.6, 28.4 and 56.8 μM, respectively.

[4] = tested on: immobilized Pen G acylase preparations; test: as above
Source text: as §2, §3, §4, §5, §6, §7

[5] = target: T3, agarose based penicillin G acylase immobilizate (Escherichia coli, UniProt P06875); test: Enzymatic amoxicillin synthesis with varying enzyme amounts and constant Phox (Example 4); conditions: [Phox] 31 μM
T3 construct: processed alpha/beta heterodimer cut from one precursor (signal and spacer peptides removed)
Source text: as §1, §2, §3, §4, §5
An agarose based penicillin G acylase immobilizate was employed in the following experiments. The immobilizate which was kept in water was drained of excess water on a filter by applying suction for 1 min. Phox was added to a concentration of 31 μM in the reaction mixture.

[6] = Calbiochem enzyme 61 U/ml, [Phox] 2.6 μM
[7] = Calbiochem enzyme 61 U/ml, [Phox] 56.8 μM
[8] = Calbiochem enzyme 61 U/ml, [Phox] 142 μM
[9] = GBF enzyme 60 U/ml, [Phox] 2.6 μM
[10] = GBF enzyme 60 U/ml, [Phox] 56.8 μM
[11] = GBF enzyme 60 U/ml, [Phox] 142 μM

## O=C(O)COc1ccccc1 [Phox, phenoxyacetic acid]
[1]
  X at reaction stop time: 2.05
[2]; [6]
  Initial velocity V0 (Amox): 52.2 nmoles/min/U
  Initial velocity V0 (D-HPG): 33.4 nmoles/min/U
  X at reaction stop time: 2.1
[2]; [7]
  Initial velocity V0 (Amox): 11.0 nmoles/min/U
  Initial velocity V0 (D-HPG): 6.8 nmoles/min/U
  X at reaction stop time: 1.8
[2]; [8]
  Initial velocity V0 (Amox): 5.5 nmoles/min/U
  Initial velocity V0 (D-HPG): ca. 4.4 nmoles/min/U
  X at reaction stop time: ca. 1.7
[2]; [9]
  Initial velocity V0 (Amox): 61.1 nmoles/min/U
  Initial velocity V0 (D-HPG): 50.0 nmoles/min/U
  X at reaction stop time: 2.1
[2]; [10]
  Initial velocity V0 (Amox): 21.7 nmoles/min/U
  Initial velocity V0 (D-HPG): 14.4 nmoles/min/U
  X at reaction stop time: 1.8
[2]; [11]
  Initial velocity V0 (Amox): 6.3 nmoles/min/U
  Initial velocity V0 (D-HPG): 3.6 nmoles/min/U
  X at reaction stop time: 1.7
[3]; [Phox] 2.6 μM
  Ratio X at reaction stop time: 2.9
[3]; [Phox] 28.4 μM
  Ratio X at reaction stop time: 2.35
[3]; [Phox] 56.8 μM
  Ratio X at reaction stop time: 2.05
[4]; Immobilizate b (agarose based, 12.0 U/ml), [Phox] 2.6 μM
  Ratio X at reaction stop time: 2.4
[4]; Immobilizate b (agarose based, 12.0 U/ml), [Phox] 28.4 μM
  Ratio X at reaction stop time: 1.85
[4]; Immobilizate b (agarose based, 12.0 U/ml), [Phox] 56.8 μM
  Ratio X at reaction stop time: 1.7
[4]; Immobilizate c (Recordati, 12.0 U/ml), [Phox] 2.6 μM
  Ratio X at reaction stop time: 2.3
[4]; Immobilizate c (Recordati, 12.0 U/ml), [Phox] 28.4 μM
  Ratio X at reaction stop time: 1.9
[4]; Immobilizate c (Recordati, 12.0 U/ml), [Phox] 56.8 μM
  Ratio X at reaction stop time: 1.95
[4]; Immobilizate d (Boehringer Mannheim experimental, 11.5 U/ml), [Phox] 2.6 μM
  Ratio X at reaction stop time: 2.5
[4]; Immobilizate d (Boehringer Mannheim experimental, 11.5 U/ml), [Phox] 28.4 μM
  Ratio X at reaction stop time: 1.95
[4]; Immobilizate d (Boehringer Mannheim experimental, 11.5 U/ml), [Phox] 56.8 μM
  Ratio X at reaction stop time: 1.9
[5]; Exp A, enzyme dosage 11.9 U/ml
  Initial velocity V0 (D-HPG): 0.60 µmol/min/mL
[5]; Exp B, enzyme dosage 23.8 U/ml
  X at stop time: 1.8
[5]; Exp C, enzyme dosage 47.5 U/ml
  Initial velocity V0 (Amox): 6.6 µmol/min/mL
